These are literature values, as cited in patent US20210315865A1 (Biohaven Therapeutics Ltd., priority 2018, published 2021).

One data set concerns liver function tests. The conditions noted are these: in vivo.
The subject of another data set is oral mucosa. The conditions noted are these: administered directly to the oral mucosa.

Regarding `Nc1nc2ccc(OC(F)(F)F)cc2s1` [riluzole, 6-(trifluoromethoxy)benzothiazol-2-amine], the “effects on liver function tests” value in the data set with liver function tests is “dose-dependent effects on liver function tests”. The oral numbness result with oral mucosa was “intense oral numbness”.
